Measurements from US20190388377A1, “COMPOSITIONS AND METHODS FOR THE TREATMENT OF LIVER DISEASES AND DISORDERS” (AXCELLA HEALTH INC., priority 2018, published 2019).

System: primary human hepatocytes
Experiment: Intracellular lipid accumulation after 72 h by fluorescence microscopy, PHH model for NASH, Example 2
Format: cell-based
Conditions: donor 1, FFA+TNFα, AA Conc. 25X
Experimental: PHH from two healthy human donors (Lonza, TRL) were seeded on day 0 at density of 6e04 cells in 96 well optical microplates (Thermofisher) in hepatocyte plating media (William's E medium, WEM) (Gibco) supplemented with 10% heat-inactivated FBS (Atlanta Bio), 2 mM Glutamax (Gibco), and 0.2% Primocin (InVivoGen) and incubated for 6 hours at 37° C., 5% CO2. After 6 hours, cells were washed twice and incubated overnight at 37° C., 5% CO2 with Hepatocytes defined medium (Corning) supplemented with 2 mM Glutamax (Gibco), and 1× Penicillin/Streptomycin. On day 1, cells were washed twice and incubated for 24 h in the hepatocyte culture media in the same conditions described above. […]
After 72 hours, cells were washed twice in 100 ul PBS 1× (Gibco), fixed with 4% Paraformaldehyde, and washed twice with PBS 1× (100 ul). […] The LipidTOX™ neutral lipid stain has an extremely high affinity for neutral lipid droplets that was detected by fluorescence microscopy using a high content imager (Molecular Devices). Data was normalized to the cell concentration determined by nuclei count. Images were analyzed and total lipid area was calculated using granularity module in MetaXpress 6 software. […]

N=C(N)NCCC[C@H](N)C(=O)O [R, L-arginine]
Lipid Median (median fold change from control): −0.007
